# From patent publication US8957024B2, “Composition and methods for reducing opioid-induced pruritus” (priority 2011, dated 2015)
# Tested on: HEK 293 cells co-expressing MOR1D and GRPR
substance,measurement,value
D-Phe-6-Bn(6-13)OMe [GRPR antagonist],effect on GRP-induced calcium spikes,completely blocked
